Columns and labels:
G-actin [1] = experiment: Microscale thermophoresis (MST), Las17 fragments to labelled G-actin; format: binding, rabbit; settings: under similar conditions, comparator ref [15]
Procedure: Rabbit skeletal muscle actin was gel filtered as described. Concentrations of G-actin produced and used in experiments were in the range 35–65 µM.
Microscale Thermophoresis (MST) assays were performed as described previously. Briefly, rabbit muscle actin in G-buffer minus DTT was […] using Monolith NT^TM Protein Labelling Kit RED-Malemide (NanoTemper Technologies, Munich, Germany). Las17 was prepared as a two-fold serial dilution across 16 tubes and an equal volume of labelled actin was added to each reaction (Final buffer conditions: 25 nM actin, G-buffer + 0.05% Tween). Each reaction was then loaded into Monolith NT.115 Premium Treated Capillaries (NanoTemper Technologies) and thermophoresis was measured in a Monolith NT.115 Microscale Thermophoresis device (NanoTemper Technologies). Thermophoresis was measured at 20% red LED power and 40% IR laser power at 22°C. Fnorm was calculated from the ratio of fluorescence before heating and after the new equilibrium had been reached. Fnorm was then plotted against Las17 concentration to give the Las17 dependent change in thermophoresis. This was described by the ‘Kd fit’ model on the provided software to give Kds for actin binding to Las17 fragments. Each experiment was carried out three separate times with protein from different protein preparations and mean ± SE shown except for Fig. 7a where mean ± SD is shown.

G-actin [2] = experiment: MST, Las17 300-422 to labelled G-actin in presence or absence of Sla1 SH3#1-3 (competition); format: binding, rabbit; settings: Las17 and Sla1; Sla1 SH3#1-3 4.5 µM; actin 50 nM; Allosteric sigmoidal least squares fit; read-out: apparent Kd, in presence of Sla1
Procedure: Having established that both actin and Sla1-SH3 domains can bind Las17 at sites in the N-terminal PPR, we next determined whether binding occurs concurrently or whether SH3 domains directly compete for binding. Competition for PPR binding sites could be at least part of the mechanism underlying Sla1 inhibition of actin polymerisation. Relevant proteins and fragments were purified. G-actin binding to Las17 was established using MST, with an actin concentration of 50 nM, and Las17(300–422) concentrations between 0.29 and 9.5 µM. The experiment was then repeated with the addition of Sla1 SH3#1-3 fragment at 4.5 µM. […]
Fig. 7 Factors affecting Las17 interactions. […] C Quantification of liposome co-sedimentation assays. Šídák’s multiple comparisons test P < 0.0001 (n = 6). […]
Microscale Thermophoresis (MST) assays were performed as described previously. […] Each reaction was then loaded into Monolith NT.115 Premium Treated Capillaries (NanoTemper Technologies) and thermophoresis was measured in a Monolith NT.115 Microscale Thermophoresis device (NanoTemper Technologies). Thermophoresis was measured at 20% red LED power and 40% IR laser power at 22°C. Fnorm was calculated from the ratio of fluorescence before heating and after the new equilibrium had been reached. […]

| fold weaker G-actin binding than Las17(300–422) (G-actin [1]) | Substance | Kd (G-actin [2]) |
| --- | --- | --- |
| about 10 fold | Las17(342–392): minimal Las17 fragment with two arginine-pair actin sites, left on GST tag | – |
| – | Las17: Las17 fragment; residues not stated for TIRF; in b194 Las17 300–422; in b52 full length Las17-GFP in cells | 1390 nM |

From paper PMC12081870, “Competitive binding of actin and SH3 domains at proline-rich regions of Las17/WASP regulates actin polymerisation” (Communications Biology, 2025)
